Literature values, collected in US20030013883A1, “Tropane analogs binding to monoamine transporters” (priority 2000, published 2003).

By UniProt entry, the sequences of proteins in these tests, tags left out.
UniProt P31652, whole entry: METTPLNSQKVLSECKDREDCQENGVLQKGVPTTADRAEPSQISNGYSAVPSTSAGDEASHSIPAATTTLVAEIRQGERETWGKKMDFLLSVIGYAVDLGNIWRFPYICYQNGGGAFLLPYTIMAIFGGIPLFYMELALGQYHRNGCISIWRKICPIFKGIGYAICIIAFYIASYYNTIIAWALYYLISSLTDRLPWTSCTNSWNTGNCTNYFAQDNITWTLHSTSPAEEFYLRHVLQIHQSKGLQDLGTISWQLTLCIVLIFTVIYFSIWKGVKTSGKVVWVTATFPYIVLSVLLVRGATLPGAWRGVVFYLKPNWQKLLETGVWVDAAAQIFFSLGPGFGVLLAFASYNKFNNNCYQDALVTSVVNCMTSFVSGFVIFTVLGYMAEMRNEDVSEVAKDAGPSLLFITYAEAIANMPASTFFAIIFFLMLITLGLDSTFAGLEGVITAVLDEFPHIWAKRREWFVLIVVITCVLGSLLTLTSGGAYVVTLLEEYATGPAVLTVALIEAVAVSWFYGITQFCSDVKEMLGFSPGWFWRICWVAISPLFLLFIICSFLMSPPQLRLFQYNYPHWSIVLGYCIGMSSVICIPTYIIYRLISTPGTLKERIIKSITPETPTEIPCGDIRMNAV

Biological target: serotonin transporter (SERT) (Rattus norvegicus, UniProt P31652)
Details: read-out: Kd of radioligand at SERT; radioligand constant used in Cheng-Prusoff conversion; cited from earlier work

Substance: [^3H]paroxetine
- Kd: 0.15 nM
